ALR inh: human ALR oxidase inhibition via reduced H2O2. 290,000 tested, 3.8% active. AID 485317. purified ALR, DTT oxidation, H2O2 HRP-luminol luminescence. inhibition, % (test concentration not listed). P55789;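 active = mean and each replicate at 75% or more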;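 also: stock transfer was 7.5 nL into about 7.5 µL; 0% = neutral wells and 100% = wells with inactivated enzyme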
MC4R antagonist: human MC4R antagonism in cAMP assay; inhibition, % at 6.5 µM; P32245; AID 540295; actives 0.48% (n = 360,000); MC4R-expressing cells, MTII-stimulated cAMP, LANCE TR-FRET;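 active = inhibition above its plate's cutoff, the mean of tested wells on that plate plus 3 SD, cut at about 29% in these data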
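Assay system: human MC4R-expressing U2OS cells; reagent: Melanotan II stimulation of cells; dosing: 6.5 µM single dose; timing: compound 30 min, challenge 1 h, detection 1 h; signal: TR-FRET cAMP assay; replicates: one well per compound, no replicates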
MC4R ag barr: agonists of human melanocortin 4 receptor (MC4R) beta-arrestin | AID 540308 | P32245 | U2OS MC4R beta-arrestin complementation, luminescence; percent of melanotan II response, DMSO zero | actives 0.98% (n = 360,000) | activation, % at 8.9 µM;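 active = activation above a per-plate cutoff, the mean activation of sample wells on that plate plus 3 SD, cut at about 8% in these data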
HDAC3 inh: blocks human histone deacetylase 3; inhibition, % at 8.3 µM; actives 0.15% (n = 320,000); recombinant HDAC3, fluorogenic peptide/trypsin coupled, fluorescence; in the data active = inhibition above about 26%, passing the limit was not always enough; inconclusive = no clear call, values can overlap the other calls
NALP1 inh: blocks the NALP1 inflammasome reconstituted in yeast; S. cerevisiae NALP1/ASC/caspase-1 growth, X-gal OD620, 72 h; actives 0.61% (n = 280,000); inhibition, % at 10 µM; AID 2071; in the data active = inhibition mostly above about 24%, no sharp cut-off; inactive = mostly below about 32%
UUG fidelity: modulators of start codon recognition fidelity in yeast; AID 602363; activity score, % at 18.7 µM; S. cerevisiae UUG-firefly luciferase reporter, luminescence/redox ratio; 0.13% of 350,000 active;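 active = replicate mean at a twofold rise or more, about +100% in these data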;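 note: firefly luciferase made from a UUG start codon reports start codon fidelity; reporter light over untreated wells divided by growth signal over untreated wells; some hits fall short of that in this replicate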
Numbers stand for hits; . = inactive; ? = inconclusive; / = no result given. This is a sample that favours compounds with a hit; in the whole collection about 4.2% have one here.

SMILES	ALR inh	MC4R antagonist	MC4R ag barr	HDAC3 inh	NALP1 inh	UUG fidelity
Cc1sc2nc(CSC(C)C(=O)Nc3ccc(C#N)cc3)[nH]c(=O)c2c1C (stereo not given)	98.3	.	.	.	/	.
Cc1sc2nc(CSC(C)C(=O)Nc3ccc(Cl)cn3)[nH]c(=O)c2c1C (stereo not given)	.	.	.	.	/	.
C[C@H]1CN([C@@H](C)CO)C(=O)c2cc(NC(=O)c3ccncc3)ccc2O[C@@H]1CN(C)C(=O)Nc1ccc2c(c1)OCO2	/	/	/	/	/	.
CCCNC(=O)Nc1ccc2c(c1)C(=O)N(C)C[C@H](OC)[C@H](C)CN(C(=O)C1CCC1)[C@@H](C)CO2	/	/	/	/	/	.
CCN(CCNC(=O)C1CCCN(Cc2nc(-c3ccc(OC)cc3)oc2C)C1)c1ccccc1 (stereo not given)	96.5	.	.	.	.	.
CCc1ccc(-c2nc(CN3CCCC(C(=O)O)C3)c(C)o2)cc1 (stereo not given)	.	.	.	.	.	.
Cc1oc(-c2cccc(Cl)c2)nc1CN1CCC(C(=O)NC2CC2)CC1	.	.	.	.	.	.
CCN(CCNC(=O)C1CCN(Cc2nc(-c3ccc(Cl)cc3)oc2C)CC1)c1ccccc1	98.3	.	.	.	.	.
CCN(CCNC(=O)C1CCN(Cc2nc(-c3cccc(Cl)c3)oc2C)CC1)c1ccccc1	98.5	.	.	.	.	.
CCc1ccc(-c2nc(CN3CCC(C(=O)NCCN(CC)c4ccccc4)CC3)c(C)o2)cc1	98.6	.	.	.	.	.
CCc1ccc(-c2nc(CN3CCC(C(=O)N4CCN(c5ccccc5)CC4)CC3)c(C)o2)cc1	.	.	9.5	.	.	.
COc1ccc(CN(C)C[C@H]2OCCCC[C@H](C)Oc3ccc(NC(=O)c4ccncc4)cc3C(=O)N([C@@H](C)CO)C[C@@H]2C)cc1	/	/	/	/	/	.
O=C(Nc1ccc(Br)cc1F)c1ccncc1	.	.	.	.	.	.
O=C(Nc1ccc(Br)cc1F)c1ccc2nsnc2c1	.	.	8.8	.	.	.
COc1cc(/C=C/C(=O)OCC(=O)N2CC(=O)Nc3ccccc32)ccc1O	96.4	.	.	.	/	/
CC(Oc1ccccc1)C(=O)OCC(=O)N1CC(=O)Nc2ccccc21 (stereo not given)	.	.	.	.	24.1	/
O=C1CN(C(=O)COC(=O)CNS(=O)(=O)c2ccccc2)c2ccccc2N1	.	.	.	.	.	/
COc1ccc(/C=C/C(=O)OCC(=O)N2CC(=O)Nc3ccccc32)cc1S(=O)(=O)N1CCOCC1	.	.	.	.	.	.
O=C1CN(C(=O)COC(=O)CNS(=O)(=O)/C=C/c2ccccc2)c2ccccc2N1	.	.	.	.	33.5	/
C[C@@H]1CCCCO[C@@H](CN(C)S(=O)(=O)c2ccccc2)[C@@H](C)CN([C@@H](C)CO)C(=O)c2cc(NS(=O)(=O)c3cccs3)ccc2O1	/	/	/	/	/	.
C[C@@H]1CN([C@H](C)CO)S(=O)(=O)c2ccc(/C=C/c3ccccc3)cc2O[C@H]1CN(C)C(=O)NC1CCCC1	/	/	/	/	/	.
CC(=O)c1ccc(OC(=O)CCc2nc3ccccc3s2)cc1	92.9	.	.	?	.	/
COc1ccccc1OC(=O)CCc1nc2ccccc2s1	.	.	.	.	.	.
O=C(C1CCC1)N1CC[C@@H]2[C@H](CO)Nc3ccc(C#Cc4cccc(F)c4)cc3[C@@H]21	/	/	/	/	/	.
C[C@H](O)C#Cc1ccc2c(c1)O[C@@H](CN(C)C(=O)CC1CC1)[C@H](C)CN([C@H](C)CO)S2(=O)=O	/	/	/	/	/	.
SMILES	ALR inh	MC4R antagonist	MC4R ag barr	HDAC3 inh	NALP1 inh	UUG fidelity
COc1cnc(-c2ccccn2)nc1Oc1ccccc1Cl	97.8	.	.	.	.	.
Cc1cc(C(=O)Nc2ccc3c(c2)C(=O)N(C)[C@@H]2CC[C@@H](CC(=O)N[C@H](C)c4ccccc4)O[C@@H]2CO3)no1	/	/	/	/	/	.
COC(=O)C[C@@H]1CC[C@H]2[C@H](COc3ccc(NS(=O)(=O)c4ccccc4F)cc3C(=O)N2C)O1	/	/	/	/	/	.
COc1cccc(/C=N/n2c(C3CCCCC3)n[nH]c2=S)c1O	91.9	.	.	.	.	.
S=c1[nH]nc(C2CCCCC2)n1/N=C/c1ccccn1	96.0	.	.	.	.	.
S=c1[nH]nc(C2CCCCC2)n1/N=C/c1ccccc1	.	.	.	.	.	.
COc1cc(OC)c(/C=N/n2c(C3CCCCC3)n[nH]c2=S)c(OC)c1	/	.	.	.	.	.
COc1cc(/C=N/n2c(C3CCCCC3)n[nH]c2=S)ccc1O	98.1	.	.	.	.	.
COc1ccc(NC(=O)Nc2cccc3c2O[C@@H](CN(C)CC2CCCCC2)[C@H](C)CN([C@@H](C)CO)C3=O)cc1	/	/	/	/	/	.
COC(=O)c1[nH]c2ccc(C)cc2c1NC(=O)CN1CCN(c2ccccc2)CC1	.	.	.	.	.	/
Cc1ccc2[nH]c(C(=O)O)c(NC(=O)CN3CCN(c4cccc(C)c4C)CC3)c2c1	94.0	.	.	.	.	.
COc1ccccc1NC(=O)C1Cc2ccccc2CN1C(=O)c1ccco1 (stereo not given)	/	.	.	.	.	.
O=C(Nc1ccccc1)C1Cc2ccccc2CN1C(=O)c1ccco1 (stereo not given)	97.3	.	.	.	.	/
CCCCCCCCCS(=O)(=O)Nc1cc(C)ccn1	.	.	.	.	.	.
Cc1cc(C)cc(NS(=O)(=O)CCCS(=O)(=O)Nc2cc(C)cc(C)c2)c1	/	.	19.1	/	/	.
CC(C)NC(=O)N1CC[C@@H]2[C@H]1c1cc(-c3ccccc3)ccc1N(C)[C@H]2CO	/	/	/	/	/	.
N#CC1=C(SCC(=O)Nc2ccc(C(=O)O)cc2)NC(=O)CC1c1ccco1 (stereo not given)	98.3	.	.	.	.	.
C=CCOC(=O)C1=C(C)NC(SCC(=O)Nc2ccc(C)c(Cl)c2)=C(C#N)C1c1ccco1 (stereo not given)	98.3	.	.	.	.	.
CC(NS(C)(=O)=O)C(c1cccs1)N1CCN(c2ccc(F)cc2)CC1 (stereo not given)	98.2	.	.	.	.	.
CC(NS(C)(=O)=O)C(c1cccs1)N1CCN(C)CC1 (stereo not given)	.	.	.	.	.	.
CC(NC(=O)C(=O)N1CCOCC1)C(c1cccs1)N1CCN(c2ccc(F)cc2)CC1 (stereo not given)	98.4	.	.	.	.	.
COc1ccc(N2CCN(C(c3cccs3)C(C)NS(C)(=O)=O)CC2)cc1 (stereo not given)	98.8	.	.	.	.	/
COc1ccc(NC(=O)Nc2cccc3c2O[C@@H](CN(C)C)[C@@H](C)CN([C@@H](C)CO)C3=O)cc1	/	/	/	/	/	.
Cc1ccc(C2c3c(oc4ccccc4c3=O)C(=O)N2c2nnc(C(C)C)s2)o1 (stereo not given)	96.5	.	.	.	/	.

Screening data (PubChem)
